Experiment: Solubility in methanol
Conditions: mL solvent per g of NR+ salt, lower value = better solubility

| Substance | Solubility in MeOH [mL solvent per g] |
| --- | --- |
| co-crystallized nicotinamide-β-D-ribofuranoside (chloride/iodide) [chloride:iodide = ~5:1] | 23 |
| co-crystallized nicotinamide-β-D-ribofuranoside (chloride/iodide) [chloride:iodide = 3:1] | 21 |

Source: US20240059727A1, “METHOD OF MAKING NICOTINAMIDE RIBOFURANOSIDE SALTS BY SALT METATHESIS, THE CRYSTALLINE FORM OF ITS TOSYLATE SALT AND THE CO-CRYSTALLIZED FORM OF ITS CHLORIDE:IODIDE SALT” (BIOSYNTH AG, priority 2021, published 2024)
